Read-outs that look alike come from different tables or passages of the source.

The chains behind the UniProt entries cited, without tags or fusion partners. Residues count along the entry.
UniProt P20701, 26-1170: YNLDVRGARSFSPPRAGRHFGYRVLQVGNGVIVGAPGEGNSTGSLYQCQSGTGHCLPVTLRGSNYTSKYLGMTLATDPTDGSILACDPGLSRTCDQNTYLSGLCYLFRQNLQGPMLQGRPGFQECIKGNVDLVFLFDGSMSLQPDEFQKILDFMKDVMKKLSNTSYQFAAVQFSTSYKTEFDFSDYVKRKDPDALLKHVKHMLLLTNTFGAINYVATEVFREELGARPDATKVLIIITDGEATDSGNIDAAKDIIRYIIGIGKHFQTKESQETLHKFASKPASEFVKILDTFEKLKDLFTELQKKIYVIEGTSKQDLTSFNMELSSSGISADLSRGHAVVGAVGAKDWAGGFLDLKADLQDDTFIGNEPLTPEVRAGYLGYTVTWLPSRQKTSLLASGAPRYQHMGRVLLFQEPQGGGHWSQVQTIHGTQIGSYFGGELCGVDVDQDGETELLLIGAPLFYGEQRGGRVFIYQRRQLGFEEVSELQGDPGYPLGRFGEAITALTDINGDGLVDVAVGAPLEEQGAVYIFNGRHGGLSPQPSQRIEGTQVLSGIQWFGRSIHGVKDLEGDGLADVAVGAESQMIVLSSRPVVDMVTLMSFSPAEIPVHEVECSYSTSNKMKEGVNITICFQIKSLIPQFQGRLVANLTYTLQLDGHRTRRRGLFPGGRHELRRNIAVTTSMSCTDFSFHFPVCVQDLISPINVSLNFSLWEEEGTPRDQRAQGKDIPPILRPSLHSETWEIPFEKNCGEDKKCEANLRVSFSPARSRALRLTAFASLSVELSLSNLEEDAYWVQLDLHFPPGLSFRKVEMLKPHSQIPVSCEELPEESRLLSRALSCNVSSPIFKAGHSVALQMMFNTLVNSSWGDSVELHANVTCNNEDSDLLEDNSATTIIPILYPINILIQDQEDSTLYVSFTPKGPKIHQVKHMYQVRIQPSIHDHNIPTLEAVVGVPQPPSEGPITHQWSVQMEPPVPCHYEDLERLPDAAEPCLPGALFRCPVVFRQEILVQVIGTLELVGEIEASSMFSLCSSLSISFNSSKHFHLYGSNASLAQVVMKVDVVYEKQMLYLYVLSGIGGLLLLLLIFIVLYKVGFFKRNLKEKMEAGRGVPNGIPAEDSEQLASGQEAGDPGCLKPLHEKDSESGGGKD

The target in the test is T1, ICAM-1/LFA-1 interaction (recombinant LFA-1, biotinylated recombinant ICAM-1/Ig) (Homo sapiens, UniProt P20701).
T1 construct: Recombinant LFA-1 (100 mL of 0.7 mg/ml, ICOS Corporation) in D-PBS is then added to each well
Kind of test: ICAM-1/LFA-1 Biochemical Interaction Assay (46A). Format: binding.

In general, inhibition refers to the share of the control response that was lost under treatment. In the case of `O=C(O)CCc1ccccc1Sc1ccc(C2CC2C(=O)NCCCN2CCCC2=O)cc1C(F)(F)F` (racemic) [Example 6, (±)-(2-(2-carboxyethyl)phenyl)[2-trifluoromethyl-4-(trans-(2-((3-(1-pyrrolidin-2-onyl)-prop-1-ylamino)carbonyl)cycloprop-1-yl)phenyl]sulfide], the inhibition at 4 µM was 90%.

Take `O=C(NCCCN1CCCC1=O)C1CC1c1ccc(Sc2ccccc2N2CCOCC2)c(C(F)(F)F)c1` (racemic) [Example 7, (±)-(2-Morpholin-1-ylphenyl)[2-trifluoromethyl-4-(trans-(2-((3-(1-pyrrolidin-2-onyl)-prop-1-ylamino)carbonyl)cycloprop-1-yl)phenyl]sulfide]: the inhibition at 4 µM (@ 4 μM compound) is 93%.

The values are drawn from patent publication US6521619B2, “Aryl phenylcyclopropyl sulfide derivatives and their use as cell adhesion inhibiting anti-inflammatory and immune suppressive agents” (Icos Corporation, priority 2000, dated 2003).
